Assay results published in patent US9182409B2, “Mass spectrometry imaging method for detecting and quantifying a target molecule in a tissue sample” (priority 2011, dated 2015).

Test: in vivo
Details: male, Swiss, mouse, kidney, po, 8 mg/kg

With `Cc1cc2c(s1)Nc1ccccc1N=C2N1CCN(C)CC1` [olanzapine, Olanzapine] as the compound, how does the concentration at 2 h read?
Its concentration at 2 h is 41100 ng/g.
